Data from patent publication US7439251B2, “Methods and compositions for treatment of central and peripheral nervous system disorders and novel compounds useful therefor” (Israel Institute for Biological Research, priority 2002, dated 2008).

Legend:
[1] = system: rat pheochromocytoma cells transfected with the M1 mAChR
[2] = system: rat pheochromocytoma cells transfected with M1 mAChR; test: Neurite outgrowth in rat pheochromocytoma cells transfected with M1 mAChR; type: cell-based; details: 24 hrs, without neurotrophins
Procedure: Rat pheochromocytoma cells transfected with M1 mAChR cells were grown as described in Gurwitz et al, (NeuroReport 6, 485, 1995). For determination of neurite outgrowth, cells plated in six-well plates were used 3-5 days after plating. Growth factors were added 1 day after plating and muscarinic agonists were added for the last 24 hrs.
Cells were observed under an inverted microscope. The percent of cells with neurite longer than cell diameter were scored in three random fields of several hundred cells from each well. Results were expressed as a percent of cells with neurites. Treatments were performed in triplicate cells. Both NGF (50 ng/ml) and EGF (100 ng/ml) were added 1 day after plating. Muscarinic agonists were added 24 hours before scoring.

[3] = system: rat pheochromocytoma cells transfected with the M1 mAChR; remark: listed apart in the source
Procedure: Confluent rat pheochromocytoma cells transfected with the M1 mAChR cultures were detached with trypsin, washed and plated in 24well, 6-well, 60-mm or 100-mm plates that were precoated with rat tail collagen (Sigma, Israel). Several experiments were performed in serum-free medium. For 3-(4,5-dimethylthiazol-2-yl)-2,5-diphenyl-tetrazolium bromide (MIT) assay, cells (1.5×10^4) were plated in 96-well collagen-precoated plates, in serum-free medium, with or without various drugs for 24 hours. For differentiation, cells were grown in the presence of 1% FCS and 1% HS, with addition of 50 ng/ml NGF for 7 days, to cause full differentiation. […]
Cells were grown and treated on glass coverslips. […] Cells were washed three times with PBS, mounted in a solution of glycerol containing 22 mM 1,4 dizabicyclo(2,2,2)octane (Sigma, Israel) to prevent fading, and viewed for nuclear chromatin morphology with a fluorescence microscope. Apoptotic and viable cells were counted (200 cells per coverslip, each experiment was performed in duplicates).
The TUNEL (Terminal deoxynucleotidyl transferase (TdT) mediated dUTP nick end labeling) method enzymatically labels DNA fragments at the 3′OH ends (representing the DNA strand breaks) with fluorescein-dUPT (Boehringer Mannheim, Germany). […] Evans Blue reagent (diluted 1:2000 in PBS) was added for 5 min and the slides were viewed with fluorescence microscope. […]

C[N+](C)(C)CCOC(N)=O [carbachol, reference compound]
H2O2-induced toxicity [1]: protect the cells
cell death induced by β-A25-35 (MTT) [1]: significantly attenuated
Maximal neurite outgrowth response (percent of cells with neurites) [2]: 80%
apoptotic death during starvation (FACS) ([3]; 24 hrs): protected cells from apoptotic death
β-amyloid increased apoptotic population (FACS) ([3]; β-Amyloid25-35 or 1-42): reduced the apoptotic population significantly
